Target: human inducible phospho-fructokinase bisphosphatase isoform 3, PFKFB3 (human), Q16875
Experiment: MST; compound in MST buffer mixed 1:1 with 100 nM RED-NHS labeled recombinant PFKFB3, incubated 20 min at room temperature; Nanotemper

Kd: 3000 nM
Binder: WGY (modifications not checked) [compound 6]

Source: paper PMC6937325, “Tuning PFKFB3 Bisphosphatase Activity Through Allosteric Interference” (Scientific Reports, 2019)
